The entries are a selection whose mix differs from that of the whole data set. Calls of active or inactive are those of the source. Calls follow the shape of the dose curve; as a rule, active = well fitted activation curve with a large enough effect; inconclusive = small, poorly fitted or top-dose-only effect; inactive = no such curve, though single readings can be large or run the other way.

A short description of the test: qHTS of alpha-syn Inhibitors. Also: % of control where 0% means no effect; nearly all actives have a fitted effect of over 65% in size. The following applies: Yeast expressing alpha-synuclein, BacTiter-Glo, 24 h; at 46.1 µM (top of the series). An excerpt:
The goal of this project is to identify new chemical probes capable of reversing the toxicity associated with the Parkinson disease-related protein, alpha-synuclein. Compounds will be selected on their ability to restore growth in yeast cells expressing toxic levels of alpha-synuclein. These compounds will provide a complementary approach to deciphering the tangled mechanisms of toxicity and protection that we have uncovered through genome-wide genetic screens and are beginning to uncover in a large-scale proteomics analysis with mass spectroscopy. To this end, a miniaturized assay was developed to be screened against the Molecular Libraries Small Molecule Repository (MLSMR) to discover alpha-synuclein inhibitors. Please note that in the set-up this yeast-based assay compounds that inhibit as alpha-syn, have a read-out as activators. NIH Chemical Genomics Center [NCGC] NIH Molecular Libraries Probe Centers Network [MLPCN] MLPCN Grant: NS060957 Assay Submitter (PI): Susan Lindquist, Whitehead Institute/MIT
Dispense 2.5 microL yeast galactose medium per 1536-well plate, pin compound, dispense 2.5 microL alpha-synuclein expressing yeast in galactose medium at OD600=0.02 (pregrown in raffinose medium to mid-log phase) per well, incubate for 24 hr at 30 deg C, and cell growth will be measured using 5 microL of Bactiter/Glo reagent to entire plate and read using Luminescence Protocol in ViewLux.
With `O=[N+]([O-])c1cc([N+](=O)[O-])c(Nc2nnnn2CCO)c([N+](=O)[O-])c1`, the growth rescue (activation) was inactive: -6.99%.
Turning to `CC1=C2N=C(C=C3N=C(C(C)=C4[N-][C@@](C)([C@@H]5N=C1[C@](C)(CCC(=O)NC[C@@H](C)OP(=O)([O-])O[C@H]1[C@@H](O)[C@@H](n6cnc7cc(C)c(C)cc76)O[C@@H]1CO)[C@H]5CC(N)=O)[C@@](C)(CC(N)=O)[C@@H]4CCC(N)=O)[C@@](C)(CC(N)=O)[C@@H]3CCC(N)=O)C(C)(C)[C@@H]2CCC(N)=O.[C-]#N.[Co+3]`, the growth rescue (activation) was inactive: -12.8%.
To `COc1ccccc1OP(C)(=O)Nc1c(C)cccc1C` (configuration not stated) belongs inactive: -1.81%.
In the case of `CN1CCCCC1COC(=O)C1(O)c2ccccc2CCc2ccccc21` (configuration not stated) it was inactive: -1.55%; in that of `CP(=O)(Nc1ccc(SC(F)(F)F)cc1)Oc1ccccc1` (configuration not stated), inactive: 6.05%.
In the case of `CCCOc1ccc(NP(C)(=O)Oc2ccc(Cl)cc2)cc1` (configuration not stated) it was inactive: 4.78%; in that of `O=[N+]([O-])c1cc([N+](=O)[O-])c(-n2nnc3ccccc32)c([N+](=O)[O-])c1`, inactive: 0.45%; in that of `CN(Cc1cccnc1)C(=O)COc1ccc(Cl)c(Cl)c1.O=[N+]([O-])c1cc([N+](=O)[O-])c(O)c([N+](=O)[O-])c1`, inactive: 7.79%.
As for `O=[N+]([O-])c1cc([N+](=O)[O-])c(-c2cnn(-c3ccccc3)c2)c([N+](=O)[O-])c1`, the growth rescue (activation) is inactive: -25.3%.
In the case of `Cc1nc2ccc3ccccc3c2s1.O=[N+]([O-])c1cc([N+](=O)[O-])c(O)c([N+](=O)[O-])c1` it was inactive: -10.5%.
To `COc1ccccc1OP(C)(=O)Nc1cccc(Br)c1` (configuration not stated) belongs inactive: -10.6%; to `CCOC(=O)c1ccc(NP(C)(=O)Oc2cc(C)cc(C)c2)cc1` (configuration not stated), inactive: 0.73%; to `Cc1ccc(C)c(NP(C)(=O)Oc2ccccc2)c1` (configuration not stated), inactive: 9.86%.
To `CP(=O)(Nc1cccc(Br)c1)Oc1ccccc1` (configuration not stated) belongs inactive: 14.1%; to `Cc1cc(C)cc(OP(C)(=O)Nc2ccccn2)c1` (configuration not stated), inactive: -12.3%.
Turning to `CC1=NCCc2c1[nH]c1ccccc21.O=[N+]([O-])c1cc([N+](=O)[O-])c(O)c([N+](=O)[O-])c1`, the growth rescue (activation) is inactive: -6.81%.
As to `O=[N+]([O-])c1cc([N+](=O)[O-])c(Nc2cccnc2)c([N+](=O)[O-])c1`, the growth rescue (activation) was inactive: -16.1%.
For the compound `O=[N+]([O-])c1ccc2c(c1)C=Nc1ccccc1O2`, the growth rescue (activation) was inactive: 7.59%.
In the case of `Cc1cccc(C)c1OP(C)(N)=O` (configuration not stated) it was inactive: -1.66%.
In the case of `CC(C)(C)c1ccc(OP(C)(=O)Nc2ccc(SC(F)(F)F)cc2)cc1` (configuration not stated) it was inactive: -14.2%; in that of `Cc1ccc(NP(C)(=O)Oc2ccccc2)c(C)c1` (configuration not stated), inactive: 11.1%; in that of `COc1ccccc1OP(C)(=O)Nc1ccc(C)cc1` (configuration not stated), inactive: -3.76%.
As to `CCOC(=O)c1ccc(NP(C)(=O)Oc2ccccc2)cc1` (configuration not stated), the growth rescue (activation) is inactive: 0.0555%.
To `Cc1cc(C)cc(OP(C)(N)=O)c1` (configuration not stated) belongs inactive: -3.75%; to `COc1ccc(OP(C)(=O)Nc2cccc(F)c2)cc1` (configuration not stated), inactive: -9.84%; to `COc1ccccc1OP(C)(=O)Nc1cc(Cl)ccc1C` (configuration not stated), inactive: -5.14%.
Consider `CCN(CC)CCCOC(=O)C(O)(c1ccccc1)c1ccccc1`, for which the growth rescue (activation) is inactive: 0.0512%.
In the case of `COc1ccccc1-c1ccccn1.O=[N+]([O-])c1cc([N+](=O)[O-])c(O)c([N+](=O)[O-])c1` it was inactive: -4.41%; in that of `CP(=O)(Oc1ccccc1)OC(c1ccccc1)C(F)(F)F` (configuration not stated), inactive: 6.24%.
In the case of `Cc1cccc(C)c1OP(C)(=O)Nc1ccc(SC(F)(F)F)cc1` (configuration not stated) it was inactive: 3.29%.
On to `CP(=O)(Nc1ccc(SC(F)(F)F)cc1)Oc1ccc(Cl)cc1` (configuration not stated), for which the growth rescue (activation) is inactive: -14%.
In the case of `Cc1cc(C)cc(OP(C)(=O)Nc2ccc(SC(F)(F)F)cc2)c1` (configuration not stated) it was inactive: 4.91%; in that of `CCc1ccc(OP(C)(=O)N2CCN(c3ccc([N+](=O)[O-])cc3)CC2)cc1` (configuration not stated), inactive: 0.875%.
On to `CP(=O)(NC(=O)Nc1ccccc1)Oc1ccccc1` (configuration not stated), for which the growth rescue (activation) was inactive: -8.57%.
To `CCOC(=O)c1ccc(NP(C)(=O)Oc2ccc(OC)cc2)cc1` (configuration not stated) belongs inactive: 0.359%; to `O=[N+]([O-])c1cc([N+](=O)[O-])c(O)c([N+](=O)[O-])c1.c1ccc(Oc2ccncc2)cc1`, inactive: -2.03%.
To `CCOP(C)(=S)SCC(=O)NC(C)C(=O)O` (configuration not stated) belongs inactive: -12.8%.
On to `CP(=O)(Nc1ccccn1)Oc1ccc(Cl)cc1` (configuration not stated), for which the growth rescue (activation) is inactive: -5.75%.
In the case of `CP(=S)(Nn1cnnc1)Oc1ccccc1` (configuration not stated) it was inactive: 0.0409%; in that of `CP(=O)(Nc1ccccc1Br)Oc1ccccc1` (configuration not stated), inactive: -0.355%.
For `COc1ccccc1OP(C)(=O)Nc1ccccc1` (configuration not stated), the growth rescue (activation) is inactive: -6.69%.
On to `Nc1ccc2c(ccc3cccnc32)n1.O=[N+]([O-])c1cc([N+](=O)[O-])c(O)c([N+](=O)[O-])c1`, for which the growth rescue (activation) is inactive: 5.92%.
In the case of `CCOC(=O)c1ccc(NP(C)(=O)Oc2ccc(Cl)cc2)cc1` (configuration not stated) it was inactive: 14.8%.
Take `CP(=O)(OC12CC3CC(CC(C3)C1)C2)OC12CC3CC(CC(C3)C1)C2`: the growth rescue (activation) was inactive: 20.6%.
In the case of `COc1ccc(OP(C)(=O)Nc2ccc(Br)cc2)cc1` (configuration not stated) it was inactive: 17.1%.
As to `CCN(CC)CC(O)COC(=O)C(O)(c1ccccc1)C1CCCCC1` (configuration not stated), the growth rescue (activation) is inactive: -2.67%.
To `N#[O+].[C-]#N.[C-]#N.[C-]#N.[C-]#N.[C-]#N.[Fe+2].[Na+].[Na+]` belongs inactive: 0.826%.
In the case of `O=C(OCCCN1CCCC1)C(O)(c1ccccc1)C1CCCCC1` (configuration not stated) it was inactive: -5.66%.
In the case of `COc1ccccc1OP(C)(=O)Nc1c(C)n(C)n(-c2ccccc2)c1=O` (configuration not stated) it was inactive: -0.481%.
For `CCc1ccc(OP(C)(=O)Nc2cccnc2)cc1` (configuration not stated), the growth rescue (activation) is inactive: -2.48%.
In the case of `CP(=O)(Oc1ccccc1)N1CCOC1=O` (configuration not stated) it was inactive: -2.91%; in that of `CC(C)(C)c1ccc(OP(C)(=O)O)cc1`, inactive: 4.52%.
In the case of `COc1ccccc1OP(C)(=O)Nc1ccccc1Br` (configuration not stated) it was inactive: -1.11%.
To `CP(=O)(Nc1ccc(Cl)cc1)Oc1ccc(F)cc1` (configuration not stated) belongs inactive: -0.607%; to `CN(C)C(=O)c1c([N+](=O)[O-])cc([N+](=O)[O-])cc1[N+](=O)[O-]`, inactive: -3.56%; to `COc1ccccc1OP(C)(=O)Nc1ccc(Br)cc1` (configuration not stated), inactive: 5.73%.
As to `COc1ccc(OP(C)(=O)Nc2ccccn2)cc1` (configuration not stated), the growth rescue (activation) is inactive: -0.779%.
For `CN(C)CCOC(=O)C(O)(c1ccccc1)C1CCCC1` (configuration not stated), the growth rescue (activation) was inactive: 2.62%.
To `O=[N+]([O-])c1cc([N+](=O)[O-])c(Nc2ccccn2)c([N+](=O)[O-])c1` belongs inactive: -3.46%.
To `Cc1c(NP(C)(=O)Oc2ccc(C(C)C)cc2)c(=O)n(-c2ccccc2)n1C` (configuration not stated) belongs inactive: 0.283%; to `COc1ccccc1OP(C)(=O)Nc1ccc(C)cc1C` (configuration not stated), inactive: -1.29%; to `CP(=O)(Nc1ccccn1)Oc1ccccc1` (configuration not stated), inactive: -6.15%.
To `CCc1ccc(OP(C)(=O)O)cc1` belongs inactive: -0.149%; to `Cc1cc(C)cc(OP(C)(=O)Nc2cccc(C(F)(F)F)c2)c1` (configuration not stated), inactive: 3.01%.
Take `COc1ccccc1OP(C)(=O)Nc1ccc(C)c(C)c1` (configuration not stated): the growth rescue (activation) was inactive: -4.81%.
In the case of `COc1ccc(OP(C)(=O)Nc2ccccc2Br)cc1` (configuration not stated) it was inactive: -0.463%; in that of `CP(=O)(OCCOc1ccccc1)OCCOc1ccccc1`, inactive: 6.22%.
`CCCCCCCCCCCCCCCC1C[N+](C)(C)CCOP(C)(=O)O1` (configuration not stated): the growth rescue (activation) was inactive: -53.5%.
To `CP(=O)(Nc1ccc(Cl)cc1Cl)Oc1ccccc1` (configuration not stated) belongs inactive: 8.61%; to `CCOC(=O)c1ccc(NP(C)(=O)Oc2ccc(F)cc2)cc1` (configuration not stated), inactive: 3.24%.
In the case of `COc1ccc(OP(C)(=O)Nc2ccc(SC(F)(F)F)cc2)cc1` (configuration not stated) it was inactive: 2.72%.
On to `Cc1c([N+](=O)[O-])cc([N+](=O)[O-])c(Br)c1[N+](=O)[O-]`, for which the growth rescue (activation) was inactive: 0.708%.
With `CCN(CC)CCCOC(=O)C(O)(c1ccccc1)C1CCCCC1` (configuration not stated), the growth rescue (activation) was inactive: -0.0417%.
In the case of `CP(=O)(Nc1ccccc1)Oc1ccc(F)cc1` (configuration not stated) it was inactive: 0.267%; in that of `CCCCCOc1ccc(NP(C)(=O)Oc2ccc(Cl)cc2Cl)cc1` (configuration not stated), inactive: 0.689%.
Turning to `CP(=O)(Nc1ccccc1F)Oc1ccccc1` (configuration not stated), the growth rescue (activation) is inactive: -4.7%.
To `O=C(OCCN1CCN(CCOCc2ccccc2)CC1)C(O)(c1ccccc1)c1ccccc1` belongs inactive: 20.2%; to `CP(=O)(Nc1ccc(SC(F)(F)F)cc1)Oc1ccc(F)cc1` (configuration not stated), inactive: -2.51%.
To `CCOP(C)(=S)SCC(=O)NC(C)(CC)C(=O)O` (configuration not stated) belongs inactive: 1.13%.
In the case of `CP(=O)(Nc1ccc2c(c1)OCCO2)Oc1ccccc1` (configuration not stated) it was inactive: 4.12%.
For the compound `Cc1ccccc1NP(C)(=O)Nc1ccccc1C`, the growth rescue (activation) was inactive: -0.742%.
In the case of `COc1ccc(OP(C)(=O)Nc2cccc(Br)c2)cc1` (configuration not stated) it was inactive: 4.05%.
To `CN(C)CCOC(=O)C(O)(c1ccccc1)C1CCCCC1` (configuration not stated) belongs inactive: 6.51%.
In the case of `COc1ccc(NP(C)(=O)Oc2ccccc2OC)cc1` (configuration not stated), the growth rescue (activation) was inactive: 6%.
For the compound `O=[N+]([O-])c1ccc(OP2(=O)COCCO2)cc1` (configuration not stated), the growth rescue (activation) was inactive: -4.44%.
In the case of `Cc1cc(-c2cccc3ccccc23)c(C)cn1.O=[N+]([O-])c1cc([N+](=O)[O-])c(O)c([N+](=O)[O-])c1` it was inactive: -4.78%; in that of `Cc1c(C(c2ccc3c(c2)OCO3)c2c(C)n(C)n(-c3ccccc3)c2=O)c(=O)n(-c2ccccc2)n1C.O=[N+]([O-])c1cc([N+](=O)[O-])c(O)c([N+](=O)[O-])c1`, inactive: 1.66%.

Values taken from PubChem BioAssay AID652106 (National Center for Advancing Translational Sciences (NCATS), 2013).
